Assay results as given in ChEMBL document CHEMBL2321806, “Optimization of peptide hydroxamate inhibitors of insulin-degrading enzyme reveals marked substrate-selectivity” (J Med Chem, 2013).

By UniProt entry, the sequences of proteins in these tests, tags left out.
UniProt P14735, whole entry: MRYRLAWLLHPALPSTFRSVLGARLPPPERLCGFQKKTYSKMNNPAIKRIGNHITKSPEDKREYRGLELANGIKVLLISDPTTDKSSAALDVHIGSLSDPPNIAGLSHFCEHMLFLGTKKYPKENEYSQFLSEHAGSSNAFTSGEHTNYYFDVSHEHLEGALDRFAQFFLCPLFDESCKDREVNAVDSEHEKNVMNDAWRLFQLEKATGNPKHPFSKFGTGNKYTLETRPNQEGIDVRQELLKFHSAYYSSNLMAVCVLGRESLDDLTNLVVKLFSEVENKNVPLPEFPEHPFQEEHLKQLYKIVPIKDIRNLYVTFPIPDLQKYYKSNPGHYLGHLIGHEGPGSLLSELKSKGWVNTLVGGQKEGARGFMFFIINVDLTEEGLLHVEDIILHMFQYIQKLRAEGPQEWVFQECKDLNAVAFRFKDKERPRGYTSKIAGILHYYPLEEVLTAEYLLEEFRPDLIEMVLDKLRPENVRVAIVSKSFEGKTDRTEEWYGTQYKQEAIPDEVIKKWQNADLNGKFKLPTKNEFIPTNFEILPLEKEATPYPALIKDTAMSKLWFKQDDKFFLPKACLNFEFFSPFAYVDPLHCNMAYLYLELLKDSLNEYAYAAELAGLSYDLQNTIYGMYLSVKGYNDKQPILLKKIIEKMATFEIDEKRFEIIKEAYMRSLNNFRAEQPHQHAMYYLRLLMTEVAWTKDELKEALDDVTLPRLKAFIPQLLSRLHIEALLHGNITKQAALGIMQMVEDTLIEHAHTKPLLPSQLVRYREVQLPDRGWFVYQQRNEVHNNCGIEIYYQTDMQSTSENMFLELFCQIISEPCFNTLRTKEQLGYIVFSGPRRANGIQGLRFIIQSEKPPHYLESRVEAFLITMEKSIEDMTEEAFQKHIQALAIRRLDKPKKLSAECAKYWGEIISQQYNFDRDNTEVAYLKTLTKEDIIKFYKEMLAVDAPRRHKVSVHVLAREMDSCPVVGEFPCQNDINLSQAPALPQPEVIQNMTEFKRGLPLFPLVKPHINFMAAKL

How the values were obtained:
[1] = molecular target: T1, Insulin-degrading enzyme (Homo sapiens, UniProt P14735); assay: Inhibition of human recombinant IDE-mediated FRET1 degradation; details: read-out: Ki(app)
[2] = molecular target: T1, Insulin-degrading enzyme; assay: Selectivity ratio of apparent Ki for human recombinant IDE-mediated insulin degradation to apparent Ki for human recombinant IDE-mediated FRET1 degradation

Ki [1] | Compound | Ratio Ki(app) [2]
0.498 µM | NC(=O)[C@H](Cc1c[nH]c2ccccc12)NC(=O)[C@H](CCCN=C(N)N)NC(=O)[C@H](Cc1ccc2ccccc2c1)[C@@H](O)C(=O)NO | 
 | N=C(N)NCCC[C@H](NC(=O)[C@@H](CC(=O)NO)Cc1ccc2ccccc2c1)C(=O)N[C@@H](Cc1c[nH]c2ccccc12)C(=O)N[C@@H](CCC(=O)O)C(N)=O | 10
18 µM | N=C(N)NCCC[C@H](NC(=O)[C@H](Cc1ccc2ccccc2c1)[C@H](O)C(=O)NO)C(=O)N[C@@H](Cc1c[nH]c2ccccc12)C(N)=O | 
